# In patent US20230167155A1, “COMPOSITIONS AND METHODS” (KING'S COLLEGE LONDON, priority 2020, published 2023):
# System: macrophages
# Test: Sensitivity of macrophages to IFNγ (iNOS expression, flow cytometry)
# Type: cell-based
# Conditions: 100 microM, thrombin 50 iu
# Description: In more detail, mechanistic insights: direct effect on monocyte/macrophage phenotype. Sensitivity of macrophages to IFNγ, as assessed by the proportion that express iNOS after stimulation.
# The enhanced sensitivity to IFNγ induced by thrombin is inhibited by a PAR-1 antagonist—this is via expression of ABCA1 and membrane lipid rafts. […] BMM purified cells cultured in MCSF for 5 days. Cells then removed for 24 hours and incubated with thrombin (50 units) (if an antagonist or 3-mercaptopropionyl-F-Cha-Cha-RKPNDK was used cells were incubated for 2 hours with the antagonist or 3MP prior to thrombin stimulation to allow time for antagonist to dock with PAR). Cells then had media replaced with thrombin+ PAR reagent and IFN gamma at the dose described. For the PAR2 experiments it was at this point that PAR2 was added. Cells were then incubated for 24 further hours and then analysed by flow cytometry for iNOS. Pure PAR-1 antagonist (αagonist)=FLLRN; Pure PAR-2 agonist=2-Furoyl-LIGRLO-amide; 3-MP=3-mercaptopropionyl-F-Cha-Cha-RKPNDK; All used at 100 microM. Thrombin used at 50 iu
substance,measurement,value
"3-mercaptopropionyl-Phe-Cha-Cha-Arg-Lys-Pro-Asn-Asp-Lys-NH2 ([Mpa]F[Cha][Cha]RKPNDK-NH2; SMILES N=C(N)NCCC[C@H](NC(=O)[C@H](CC1CCCCC1)NC(=O)[C@H](CC1CCCCC1)NC(=O)[C@H](Cc1ccccc1)NC(=O)CCS)C(=O)N[C@@H](CCCCN)C(=O)N1CCC[C@H]1C(=O)N[C@@H](CC(N)=O)C(=O)N[C@@H](CC(=O)O)C(=O)N[C@@H](CCCCN)C(N)=O) [3-MP, parental untailed compound of PTL032 and PTL0GC-1]",enhanced sensitivity of macrophages to IFNγ induced by thrombin (iNOS),completely (bottom) or near completely (top) abolishes the effect of thrombin on sensitivity to IFNγ

# [ ]: non-standard residue; d: D form. Cha = N[C@@H](CC1CCCCC1)C(=O)O; Mpa = O=C(O)CCS
